{"source": "ChEMBL document CHEMBL4392829", "about": "“Synthesis and biological evaluation of 3-substituted 2-oxindole derivatives as new glycogen synthase kinase 3β inhibitors” (Bioorg Med Chem, 2019)", "species": "Homo sapiens", "experiment": "Selectivity ratio of IC50 for human A549 cells to IC50 for recombinant human GSK3beta", "data": [{"smiles": "O=C1Nc2ccccc2/C1=C/c1ccccn1", "values": [{"measurement": "Ratio IC50", "value": 1000}]}]}
